Columns and labels:
[1] = target: T1, Mu-type opioid receptor (Homo sapiens, UniProt P35372); assay: Agonist activity at MOP (unknown origin) expressed in SH-SY5Y cell membranes co-expressing beta-arrestin2-RGFP protein assessed as induction of beta-arrestin2 activation incubated for 15 mins by BRET assay; assay type: cell-based
[2] = target: T1, Mu-type opioid receptor; assay: Agonist activity at MOP (unknown origin) expressed in SH-SY5Y cell membranes co-expressing Gbeta1-RGFP protein assessed as induction of G protein activation incubated for 15 mins by BRET assay; assay type: cell-based

By UniProt entry, the sequences of proteins in these tests, tags left out.
UniProt P35372, whole entry: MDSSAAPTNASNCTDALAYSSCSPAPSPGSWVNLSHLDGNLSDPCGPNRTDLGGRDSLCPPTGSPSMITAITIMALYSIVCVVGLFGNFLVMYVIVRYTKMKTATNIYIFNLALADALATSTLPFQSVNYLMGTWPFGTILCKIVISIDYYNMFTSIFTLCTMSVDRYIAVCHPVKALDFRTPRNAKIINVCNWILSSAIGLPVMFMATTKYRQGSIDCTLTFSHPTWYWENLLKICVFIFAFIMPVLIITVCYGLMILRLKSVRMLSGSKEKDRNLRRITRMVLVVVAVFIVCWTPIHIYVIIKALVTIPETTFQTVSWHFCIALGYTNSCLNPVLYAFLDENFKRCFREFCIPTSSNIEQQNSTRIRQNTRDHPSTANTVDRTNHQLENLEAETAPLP

`C[C@@H](NC(=O)[C@@H](N)Cc1ccc(O)cc1)C(=O)N[C@@H](Cc1ccccc1)C(=O)NCC(=O)N[C@@H](Cc1ccc(O)cc1)C(=O)N1CCC[C@H]1C(=O)N[C@@H](CO)C(N)=O` [DERMORPHIN] was tested, and the EC50 [1] was 81.3 nM and the EC50 [2] was 129 nM.
